In PMC6766590, “Protocatechuic acid from chicory is bioavailable and undergoes partial glucuronidation and sulfation in healthy humans” (Food Science & Nutrition, 2019):

System: human fecal suspensions with gut microbiota

## Chicoric acid
0 hr, initial substrate dose 1 µmol
  Substrate recovered at the initial time point from the fecal suspensions: 72.8 ± 4.0%
Incubation time 0 h, initial dose 1 µmol, 37°C anaerobic
  Substrate amount in human fecal suspension: 0.73 ± 0.04 µmol
